Results from PubChem BioAssay AID488977 (Johns Hopkins Ion Channel Center, 2010).
The entries are a selection whose mix differs from that of the whole data set. Activity calls are given as the source filed them.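 The calls were made as follows: active = initial fluorescence not abnormally high and integrated response B-score, plate-corrected, over 3 SD above library mean; inactive = the rest.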

Chains of the proteins cited; added tags and fusions are not shown. Lines headed by an entry give the natural chain unless they say otherwise; changes in a name come on top.
UniProt Q9GZV3, whole entry, stated change not applied: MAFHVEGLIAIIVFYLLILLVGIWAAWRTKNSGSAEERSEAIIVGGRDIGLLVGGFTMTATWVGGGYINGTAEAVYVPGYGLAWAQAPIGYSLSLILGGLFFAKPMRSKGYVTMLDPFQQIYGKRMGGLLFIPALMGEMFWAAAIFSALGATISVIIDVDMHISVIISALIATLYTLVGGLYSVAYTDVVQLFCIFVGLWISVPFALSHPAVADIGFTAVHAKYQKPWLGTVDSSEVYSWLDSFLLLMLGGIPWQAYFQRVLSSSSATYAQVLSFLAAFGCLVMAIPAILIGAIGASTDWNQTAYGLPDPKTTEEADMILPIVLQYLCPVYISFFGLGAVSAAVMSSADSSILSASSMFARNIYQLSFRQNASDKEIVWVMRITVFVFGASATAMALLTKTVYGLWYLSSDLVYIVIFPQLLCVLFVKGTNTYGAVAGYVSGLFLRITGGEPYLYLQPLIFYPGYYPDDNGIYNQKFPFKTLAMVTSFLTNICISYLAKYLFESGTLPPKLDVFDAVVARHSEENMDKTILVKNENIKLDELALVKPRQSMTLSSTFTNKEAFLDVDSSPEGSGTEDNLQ

Target: High affinity choline transporter 1 (Homo sapiens) (UniProt Q9GZV3)
Assay: allosteric activators of human choline transporter – cell-based, membrane potential dye, choline EC20, primary screen (AID 488977)
Details: CHT-expressing cells, at 10 µM, LV-AA mutant CHT in HEK293 cells

| Structure (SMILES) | outcome |
| --- | --- |
| CC1=NCCc2c1[nH]c1ccccc21.O=[N+]([O-])c1cc([N+](=O)[O-])c(O)c([N+](=O)[O-])c1 | inactive |
